Reference: patent US20250314639A1

The chains behind the UniProt entries cited, without tags or fusion partners.
UniProt P03372, whole entry: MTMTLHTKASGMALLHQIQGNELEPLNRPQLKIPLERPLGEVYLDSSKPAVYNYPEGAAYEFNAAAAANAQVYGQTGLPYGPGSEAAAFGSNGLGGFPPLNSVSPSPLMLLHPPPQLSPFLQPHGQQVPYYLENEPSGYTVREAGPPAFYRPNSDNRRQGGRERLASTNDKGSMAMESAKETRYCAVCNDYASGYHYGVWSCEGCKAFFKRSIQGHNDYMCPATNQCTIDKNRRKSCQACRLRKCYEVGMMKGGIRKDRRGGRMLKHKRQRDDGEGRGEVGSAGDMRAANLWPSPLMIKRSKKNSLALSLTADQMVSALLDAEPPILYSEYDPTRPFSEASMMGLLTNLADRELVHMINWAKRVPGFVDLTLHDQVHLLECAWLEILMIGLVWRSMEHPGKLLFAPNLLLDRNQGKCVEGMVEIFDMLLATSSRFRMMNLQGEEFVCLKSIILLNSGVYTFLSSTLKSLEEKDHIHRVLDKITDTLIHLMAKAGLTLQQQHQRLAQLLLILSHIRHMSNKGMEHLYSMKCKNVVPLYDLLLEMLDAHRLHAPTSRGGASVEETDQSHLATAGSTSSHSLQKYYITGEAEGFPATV

What was measured:
PR = target: T1, PR (Homo sapiens, UniProt P06401); test: htSMT fbound of Halo-PR in U2OS cells; format: cell-based; settings: 1 μM antagonist, absence or presence of cognate agonist
T1 construct: expressed in transfected cells; host or cells: U2OS
T1 sequence (P06401 1-933): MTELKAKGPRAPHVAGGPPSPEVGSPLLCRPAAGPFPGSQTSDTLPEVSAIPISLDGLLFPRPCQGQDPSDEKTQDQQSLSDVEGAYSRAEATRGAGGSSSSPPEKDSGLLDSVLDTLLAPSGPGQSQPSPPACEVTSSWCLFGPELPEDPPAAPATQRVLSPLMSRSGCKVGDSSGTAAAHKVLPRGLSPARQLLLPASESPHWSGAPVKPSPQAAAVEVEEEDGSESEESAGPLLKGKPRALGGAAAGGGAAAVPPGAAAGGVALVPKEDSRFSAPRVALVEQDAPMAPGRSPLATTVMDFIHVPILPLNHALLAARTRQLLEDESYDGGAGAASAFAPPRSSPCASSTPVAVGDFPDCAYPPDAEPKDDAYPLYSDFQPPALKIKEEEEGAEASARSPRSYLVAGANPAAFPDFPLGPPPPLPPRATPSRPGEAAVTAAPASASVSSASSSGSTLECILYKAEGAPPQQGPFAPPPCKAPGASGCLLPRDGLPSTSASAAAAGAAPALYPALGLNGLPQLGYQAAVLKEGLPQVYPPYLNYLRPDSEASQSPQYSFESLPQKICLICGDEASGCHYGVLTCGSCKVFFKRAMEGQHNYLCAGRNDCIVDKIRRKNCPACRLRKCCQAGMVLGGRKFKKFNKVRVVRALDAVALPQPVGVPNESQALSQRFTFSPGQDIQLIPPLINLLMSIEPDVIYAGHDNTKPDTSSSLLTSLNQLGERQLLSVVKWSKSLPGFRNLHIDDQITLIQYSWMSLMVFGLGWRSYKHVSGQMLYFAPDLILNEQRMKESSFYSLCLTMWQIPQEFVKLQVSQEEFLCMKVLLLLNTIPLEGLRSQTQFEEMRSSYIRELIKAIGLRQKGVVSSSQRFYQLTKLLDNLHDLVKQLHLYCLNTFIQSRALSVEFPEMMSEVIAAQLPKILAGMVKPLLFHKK

ER = target: T2, ER (Homo sapiens, UniProt P03372); test: residence time imaging of ER-Halo cells (track length survival); format: cell-based; settings: track length distribution, versus DMSO or other ER modulators
T2 construct: expressed in transfected cells; host or cells: U2OS

## CC#C[C@]1(O)CC[C@H]2[C@@H]3CCC4=CC(=O)CCC4=C3[C@@H](c3ccc(N(C)C)cc3)C[C@@]21C [mifepristone]
PR
  change in chromatin binding (fbound) of PR: behaves similarly to ER antagonists

## C[C@]12CC[C@@H]3c4ccc(O)cc4C[C@@H](CCCCCCCCC[S+]([O-])CCCC(F)(F)C(F)(F)F)[C@H]3[C@@H]1CC[C@@H]2O (some centres unmarked)
ER
  ER binding times (relative residence times): longer binding times
